Experimental data published in US9260759B2, “Pyrazoloanthrone and derivatives thereof for the treatment of cancers expressing MISRII” (The General Hospital Corporation, priority 2007, dated 2016).

Sequences of proteins named here, by UniProt entry; tags and fusion partners are left off.
UniProt P53779, whole entry, species assumed: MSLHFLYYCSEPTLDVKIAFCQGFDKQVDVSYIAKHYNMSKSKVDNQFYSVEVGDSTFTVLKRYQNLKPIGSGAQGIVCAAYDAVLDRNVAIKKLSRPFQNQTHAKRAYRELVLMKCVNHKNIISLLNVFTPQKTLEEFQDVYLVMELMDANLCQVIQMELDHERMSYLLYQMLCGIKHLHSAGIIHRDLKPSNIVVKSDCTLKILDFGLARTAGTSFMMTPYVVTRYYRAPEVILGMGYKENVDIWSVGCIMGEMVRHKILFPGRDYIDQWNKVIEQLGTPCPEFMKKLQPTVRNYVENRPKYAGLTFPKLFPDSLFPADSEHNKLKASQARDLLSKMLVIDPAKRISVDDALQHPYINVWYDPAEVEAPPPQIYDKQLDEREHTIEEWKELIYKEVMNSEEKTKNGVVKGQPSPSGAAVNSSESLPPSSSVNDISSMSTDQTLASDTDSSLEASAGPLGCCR

Key:
JNK3 = JNK3 (Homo sapiens, UniProt P53779); settings: cited from earlier work
[1] = molecular target: T1, BMP type II receptor (BMPRII) (Homo sapiens, UniProt Q13873); test: BRE-luciferase reporter assay in COS7 cells transfected with BMP type II receptor; assay type: cell-based; settings: 25 ng/ml BMP2, COS7
T1 construct: expressed in transfected cells; host or cells: COS7
T1 sequence (Q13873 27-1038): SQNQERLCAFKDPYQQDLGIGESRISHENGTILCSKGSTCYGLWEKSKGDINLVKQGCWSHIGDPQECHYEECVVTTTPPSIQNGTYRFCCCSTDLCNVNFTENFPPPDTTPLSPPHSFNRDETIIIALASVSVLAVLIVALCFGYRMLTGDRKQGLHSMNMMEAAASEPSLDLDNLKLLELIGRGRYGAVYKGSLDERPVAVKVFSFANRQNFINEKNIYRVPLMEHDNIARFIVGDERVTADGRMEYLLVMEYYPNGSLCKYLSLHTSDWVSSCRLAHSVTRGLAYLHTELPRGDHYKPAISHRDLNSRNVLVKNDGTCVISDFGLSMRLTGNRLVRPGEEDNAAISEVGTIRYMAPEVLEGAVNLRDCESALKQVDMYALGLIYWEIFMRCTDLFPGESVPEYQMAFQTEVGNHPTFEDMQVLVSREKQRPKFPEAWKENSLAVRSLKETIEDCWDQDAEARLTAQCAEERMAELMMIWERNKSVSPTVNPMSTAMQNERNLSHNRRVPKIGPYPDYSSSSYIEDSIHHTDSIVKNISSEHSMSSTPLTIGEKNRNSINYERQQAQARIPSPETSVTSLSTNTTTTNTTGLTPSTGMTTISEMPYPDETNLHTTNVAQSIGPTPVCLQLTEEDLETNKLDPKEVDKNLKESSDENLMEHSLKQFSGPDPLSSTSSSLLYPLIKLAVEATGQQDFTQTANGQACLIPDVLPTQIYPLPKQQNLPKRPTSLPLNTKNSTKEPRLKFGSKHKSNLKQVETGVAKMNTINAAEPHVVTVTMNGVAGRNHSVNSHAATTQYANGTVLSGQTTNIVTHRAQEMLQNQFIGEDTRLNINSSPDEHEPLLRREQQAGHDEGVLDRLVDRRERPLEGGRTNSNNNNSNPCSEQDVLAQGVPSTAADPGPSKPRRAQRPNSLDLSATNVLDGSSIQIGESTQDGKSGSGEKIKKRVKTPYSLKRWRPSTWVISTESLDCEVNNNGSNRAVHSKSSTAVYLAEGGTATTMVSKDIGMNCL
Protocol: The results represent the mean values from three independent experiments performed in triplicates (Error bars represent SEM).*P<0.05, **P<0.01. […] The results represent the mean values from three different independent experiments. […] Luciferase activity was measured and normalized to phRL-CMV activity. […] Results shown represent the mean values form three independent experiments. […] The results shown are the mean values from three independent experiments. (Error bars represent SEM, ***p<0.001).
Little is known about the down-stream signaling events that follow MIS binding to its receptor. Reporters that have been used to study MIS effects include the BMP-specific reporter genes XVent2 and Tlx (Clarke, 2001b). In this study the inventors used a BMP-responsive (BRE) promoter to drive expression of firefly luciferase. This reporter is also activated by BMPs, but not by TGFβ or activin (Korchynskyi and ten Dijke, 2002). To investigate the receptor-specificity of SP600125 and exclude the possibility that this molecule activates other signaling pathways common for the TGFβ family, the inventors transfected COS7 cells with a BMP type II receptor (BMPRII) expression construct and the BRE-luciferase reporter. […]

BRE-luciferase activity in BMPRII-transfected cells [1]	Molecule	IC50 (JNK3)
	O=C1c2ccccc2-c2n[nH]c3cccc1c23 [SP600125, anthra[1,9-cd]pyrazol-6(2H)-one]	~150 nM
induced BRE-luciferase activity	BMP2: a ligand for BMPRII, purchased from R&D Systems	
